Reference: US11026925B2, “Angiotensin II receptor antagonist metabolite and NEP inhibitor composite and preparation method thereof” (SHENZHEN SALUBRIS PHARMACEUTICALS CO. LTD, priority 2016, dated 2021)

Experiments:
[1] = system: animal model with heart failure (ligation of left anterior descending coronary artery); experiment: anti-heart failure activity (short term, acute) in animal model (rat); type: in vivo; settings: for mAP / mLVP: 7 days before and 3 days after ligation, measured Day 11; for improvement effect on mAP and mLVP / effect on lowering blood pressure compared with untreated animal group: short-term administration, rat
Experimental: The animal model with heart failure using ligation of left anterior descending coronary artery was prepared, the therapeutic drug to the modeling animal was administrated by pre-gavage, once per day for 7 continuous days, and was continuously administrated for three days after successful modeling.
SD male rats aged 6-week old;
Pre-test preparation: All animals were divided into 5 groups by randomized blocks, 6 rats in each group, and the animals were acclimated for 3 days before test treatment; Experimental process: Therapeutic drug was given to the test animals by pre-gavage, once per day for 7 continuous days. Operation was conducted on Day 8, the animals were anesthetized, trachea was connected to a respirator, electrocardiograph (ECG) was connected for real-time recording, thoracic cavity was opened between the 3rd and 4th ribs, left anterior descending coronary artery was ligated, ST segment elevation of ECG indicated successful ligation, the thoracic cavity was closed, and the skin was sutured;
The animals were anesthetized on Day 11, ECG was measured, and then arterial pressure and left ventricular pressure were measured by carotid artery intubation.

[2] = water, ethanol, ethanol-water and other common solvents
[3] = Hygroscopicity (plain sample) at RH 75% and RH 85%; type: physicochemical; settings: Day 0, plain sample
[4] = Flowability (angle of repose, bulk density); type: physicochemical; settings: samples crushed to particle size distribution similar to LCZ696
[5] = 40° C., 75% RH, with package
[6] = system: animal model with heart failure (ligation of left anterior descending coronary artery); experiment: anti-heart failure activity (long term, chronic) in animal model (rat); type: in vivo
[7] = 22 mg/kg (compound group 1) gavage once per day
[8] = 67 mg/kg (compound group 2) gavage once per day
[9] = 22 mg/kg (compound group 1) gavage once per day for 4 weeks
[10] = 67 mg/kg (compound group 2) gavage once per day for 4 weeks

Row | Compound | mAP [1, 7] [mmHg] | mLVP [1, 7] [mmHg] | mAP [1, 8] [mmHg] | mLVP [1, 8] [mmHg] | improvement effect on mAP and mLVP / effect on lowering blood pressure compared with untreated animal group [1] | solubility property compared with EXP3174 [2] | water content, RH 75% Day 0 [3] [%] | water content, RH 85% Day 0 [3] [%] | Angle of repose [4] [°] | Bulk density [4] [g/mL] | Accelerated stability data, Day 0 [5] [%] | Accelerated stability data, Day 30 [5] [%] | Accelerated stability data, Day 180 [5] [%] | Ejection fraction [6, 9] [%] | Heart rate [6, 9] [beats/min] | Myocardial fibrosis [6, 9] [%] | Thickness of heart wall [6, 9] [cm] | Ejection fraction [6, 10] [%] | Heart rate [6, 10] [beats/min] | Myocardial fibrosis [6, 10] [%] | other results
1 | (EXP3174.AHU377)^3−.1.5Ca^2+.2.5H2O [Example 2] | 85 | 53 | 78 | 43 | significant | significantly improved | 4.9 | 4.9 | 44.79 | 0.641 | 99.85 | 99.79 | 99.84 | 66.6 | 414.9 | 7.56 | 0.178 | 65.9 | 423.2 | 4.22 | Thickness of heart wall [6, 10]: 0.164 cm
2 | (EXP3174.AHU377)^3−.1.5Ca^2+.2H2O [Example 3] | 87 | 52 | 75 | 45 | significant | significantly improved | 3.83 | 3.83 | 43.64 | 0.630 | 99.91 | 99.94 | 99.90 | 65.3 | 417.3 | 7.37 | 0.181 | 66.8 | 422.5 | 4.17 | Thickness of heart wall [6, 10]: 0.169 cm
3 | CCCCC(=O)N(Cc1ccc(-c2ccccc2-c2nnn[n-]2)cc1)[C@H](C(=O)[O-])C(C)C.CCOC(=O)[C@H](C)C[C@@H](Cc1ccc(-c2ccccc2)cc1)NC(=O)CCC(=O)[O-].O.[Na+].[Na+].[Na+] [LCZ696, reference compound] | – | – | – | – | – | – | – | – | – | – | – | – | – | – | – | – | – | – | – | – | Thickness of heart wall ([6]; 68 mg/kg gavage once per day for 4 weeks): 0.169 cm
